The results in this text go back to PubChem BioAssay AID1832 (Broad Institute, 2009).

By UniProt entry, the sequences of proteins in these tests, tags left out. Where a name states a change or a piece, a line headed by the entry shows the natural chain unless it says otherwise.
UniProt Q9XUB2: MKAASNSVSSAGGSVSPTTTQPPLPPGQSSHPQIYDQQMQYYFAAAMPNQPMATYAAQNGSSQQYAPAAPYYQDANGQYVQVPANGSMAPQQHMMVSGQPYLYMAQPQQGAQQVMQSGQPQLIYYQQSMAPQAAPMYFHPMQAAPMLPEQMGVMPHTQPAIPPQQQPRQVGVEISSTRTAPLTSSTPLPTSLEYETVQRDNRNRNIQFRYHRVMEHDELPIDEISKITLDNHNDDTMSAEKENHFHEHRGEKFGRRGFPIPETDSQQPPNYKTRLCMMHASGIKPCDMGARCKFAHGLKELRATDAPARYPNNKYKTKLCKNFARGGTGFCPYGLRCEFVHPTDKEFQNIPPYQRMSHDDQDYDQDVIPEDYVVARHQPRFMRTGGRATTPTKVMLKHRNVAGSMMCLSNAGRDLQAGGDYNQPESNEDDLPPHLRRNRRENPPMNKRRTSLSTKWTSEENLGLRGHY

Only a part is listed here, and it is no random draw. Calls of active or inactive are those of the source.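 Rule for the calls: active = inhibition past about -25% in most replicates, and total fluorescence under double the plate's negative control median (limit read from the data); inconclusive = replicates evenly split on the limit, or fluorescence at least double controls; inactive = too little inhibition in most replicates.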

In this experiment the target is Zinc finger protein mex-5 (Caenorhabditis elegans) (UniProt Q9XUB2). Description: MEX-5 zinc finger RNA-binding disruptors – biochemical, C. elegans, fluorescence polarization, MLPCN library, primary screen (AID 1832).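 Note: 0% = DMSO and -100% = 5 µM competing unlabeled TCR2 RNA.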 The following applies: MEX-5/FITC-TCR2 RNA binding, at 10 µM, stronger effect = lower value.
Turning to `CS(=O)(=O)c1ccc(Cl)c(NC(=O)COC(=O)C(O)(c2ccccc2)c2ccccc2)c1`, the activity score (negative = inhibition of binding) was inactive: 1.82%.

As to `N#CCCN(C(=O)COC(=O)C(O)(c1ccccc1)c1ccccc1)c1ccc(F)cc1`, the activity score (negative = inhibition of binding) is inactive: 0.89%.

Take `CCOP1(=S)c2c(C)nn(CCC#N)c2N=C(c2ccc(F)cc2)N1C` (configuration not stated): the activity score (negative = inhibition of binding) was inactive: -0.183%.

Regarding `CN(C(=O)Cc1ccccc1)[C@@H]1CC[C@]2(CCCO2)C[C@H]1N1CCCC1`, the activity score (negative = inhibition of binding) is inactive: -3.4%.

In the case of `CN(C)C(=O)c1cc([N+](=O)[O-])cc2c1-c1c(cc([N+](=O)[O-])cc1[N+](=O)[O-])C2=O`, the activity score (negative = inhibition of binding) was inactive: 1.03%.

Turning to `O=[N+]([O-])c1ccc2c(c1)nnn2O`, the activity score (negative = inhibition of binding) is inactive: -1.9%.

Take `CN(C(=O)Cc1ccc(Cl)c(Cl)c1)[C@H]1CC[C@@]2(CCCO2)C[C@@H]1N1CCCC1`: the activity score (negative = inhibition of binding) was inactive: -0.35%.

For the compound `NC(=O)Nc1ccc([As](=O)(O)O)cc1`, the activity score (negative = inhibition of binding) is inactive: 0.983%.

For the compound `Nc1ccccc1[As](=O)(O)c1ccccc1`, the activity score (negative = inhibition of binding) was inactive: 0.00476%.

For the compound `O=C(O)COc1ccc([As](=O)(O)O)cc1[N+](=O)[O-]`, the activity score (negative = inhibition of binding) was inactive: -0.374%.

For `CCOP1(=S)c2c(C)nn(CCC#N)c2N=C(c2ccccc2F)N1C` (configuration not stated), the activity score (negative = inhibition of binding) was inactive: 4.31%.

In the case of `O=P(Nc1nccs1)(c1ccccc1)c1nc2ccccc2s1` (configuration not stated), the activity score (negative = inhibition of binding) was inactive: -3.95%.

For the compound `O=P(Nc1nccs1)(Oc1ccccc1)Oc1ccccc1`, the activity score (negative = inhibition of binding) was inactive: 0.998%.

Take `CS(=O)(=O)c1cc([N+](=O)[O-])c2no[n+]([O-])c2c1`: the activity score (negative = inhibition of binding) was inactive: -12.9%.

As for `CCN(CC)C(=S)SC(NC=O)C(Cl)(Cl)Cl` (configuration not stated), the activity score (negative = inhibition of binding) was inactive: 2.38%.

With `CC(C)NC(=O)NP(=O)(Oc1ccccc1)Oc1ccccc1`, the activity score (negative = inhibition of binding) was inactive: 2.1%.

With `O=[N+]([O-])c1cc([N+](=O)[O-])c(-c2ccn[nH]2)s1`, the activity score (negative = inhibition of binding) was inactive: -0.387%.

For the compound `ClCCSc1nnc(-c2cccnc2)o1`, the activity score (negative = inhibition of binding) is inactive: 2.19%.

Regarding `CC(C)c1ccc(OP(=O)(Nc2ccccn2)Oc2ccccc2F)cc1` (configuration not stated), the activity score (negative = inhibition of binding) is inactive: -3.1%.

Regarding `Cc1ccc(OP(=O)(Nc2ccc([N+](=O)[O-])cn2)Oc2ccc(C)cc2)cc1`, the activity score (negative = inhibition of binding) was inactive: -1.38%.

Take `Cc1ccc2nc3c(c(C)c2c1)CC(C(Cl)Cl)S3` (configuration not stated): the activity score (negative = inhibition of binding) is inactive: -3.15%.

In the case of `C[As](=O)(O)c1cccc(C(=O)O)c1`, the activity score (negative = inhibition of binding) is inactive: 0.678%.

Consider `O=[As](O)(c1ccc(O)cc1)c1ccccc1O`, for which the activity score (negative = inhibition of binding) is inactive: -0.0823%.

Take `COc1ccc(N/C(=N/P(=O)(N2CCOCC2)N2CCOCC2)N2CCOCC2)cc1`: the activity score (negative = inhibition of binding) was inactive: 1.15%.

In the case of `COc1ccc2nc(NP(=O)(c3ccccc3)c3ccccc3)sc2c1`, the activity score (negative = inhibition of binding) is inactive: -1.19%.

In the case of `COc1cc(I)ccc1[As](=O)(O)O`, the activity score (negative = inhibition of binding) is inactive: -3.65%.

As for `Cc1c2c(nc3ccccc13)SC(C(Cl)Cl)C2` (configuration not stated), the activity score (negative = inhibition of binding) is inactive: 2.62%.

In the case of `O=C(OC1CN2CCC1CC2)C12CC3CC(CC(C3)C1)C2` (configuration not stated), the activity score (negative = inhibition of binding) was inactive: 0.495%.

On to `Cc1cc(=O)[nH]c(N[N+](=O)[O-])n1`, for which the activity score (negative = inhibition of binding) was inactive: -0.682%.

Take `CCC(C)N(CC(C)C)C(=S)SC(NC(C)=O)C(Cl)(Cl)Cl` (configuration not stated): the activity score (negative = inhibition of binding) was inactive: -0.588%.

As for `O=C(OC1CN2CCC1CC2)c1cccc([N+](=O)[O-])c1` (configuration not stated), the activity score (negative = inhibition of binding) is inactive: -2.16%.

Consider `CCOC(=O)c1ccc(NC(=O)C(C)(CCl)SC)cc1` (configuration not stated), for which the activity score (negative = inhibition of binding) was inactive: 1%.

Consider `O=C(COc1ccccc1)OC1CN2CCC1CC2` (configuration not stated), for which the activity score (negative = inhibition of binding) is inactive: -2.33%.

As for `O=C(Nc1ccncc1[N+](=O)[O-])c1ccc([N+](=O)[O-])cc1[N+](=O)[O-]`, the activity score (negative = inhibition of binding) is inactive: -0.269%.

Turning to `COP1(=S)c2c(C)nn(CCC#N)c2N=C(c2ccc(F)cc2)N1C` (configuration not stated), the activity score (negative = inhibition of binding) is inactive: -2.04%.

`O=P(Nc1ccccn1)(c1cccc2ccccc12)c1cccc2ccccc12`: the activity score (negative = inhibition of binding) is inactive: 2.88%.

As to `Cc1cc(SC(NC=O)C(Cl)(Cl)Cl)ncn1` (configuration not stated), the activity score (negative = inhibition of binding) was inactive: 1.56%.

Regarding `O=[N+]([O-])c1ccc(Nc2ccc(Oc3ccc([N+](=O)[O-])cc3[N+](=O)[O-])cc2)c([N+](=O)[O-])c1`, the activity score (negative = inhibition of binding) is inactive: -0.585%.

In the case of `CCOC(=O)Nc1cccc([As](=O)(O)O)c1`, the activity score (negative = inhibition of binding) was inactive: 0.405%.

On to `CCCCOc1ccc(C(=O)NCC2(N3CCCCC3)CCCCC2)cc1OC`, for which the activity score (negative = inhibition of binding) is inactive: 2.38%.

As to `Cc1cc(SC(NC(=O)c2ccccc2)C(Cl)(Cl)Cl)nc(C(C)C)n1` (configuration not stated), the activity score (negative = inhibition of binding) was inactive: -0.0132%.

`CCOC(=O)Nc1ccc([As](=O)(O)O)c(O)c1`: the activity score (negative = inhibition of binding) is inactive: -3.51%.
